A word on the IC50: it is the concentration that gives 50% inhibition.

Sequences of proteins named here, by UniProt entry; tags and fusion partners are left off. A line that says so, or that is headed by a name, gives the form on record, which may keep a tag or linker.
UniProt Q13574, other isoform, or with tags, fused parts or gaps: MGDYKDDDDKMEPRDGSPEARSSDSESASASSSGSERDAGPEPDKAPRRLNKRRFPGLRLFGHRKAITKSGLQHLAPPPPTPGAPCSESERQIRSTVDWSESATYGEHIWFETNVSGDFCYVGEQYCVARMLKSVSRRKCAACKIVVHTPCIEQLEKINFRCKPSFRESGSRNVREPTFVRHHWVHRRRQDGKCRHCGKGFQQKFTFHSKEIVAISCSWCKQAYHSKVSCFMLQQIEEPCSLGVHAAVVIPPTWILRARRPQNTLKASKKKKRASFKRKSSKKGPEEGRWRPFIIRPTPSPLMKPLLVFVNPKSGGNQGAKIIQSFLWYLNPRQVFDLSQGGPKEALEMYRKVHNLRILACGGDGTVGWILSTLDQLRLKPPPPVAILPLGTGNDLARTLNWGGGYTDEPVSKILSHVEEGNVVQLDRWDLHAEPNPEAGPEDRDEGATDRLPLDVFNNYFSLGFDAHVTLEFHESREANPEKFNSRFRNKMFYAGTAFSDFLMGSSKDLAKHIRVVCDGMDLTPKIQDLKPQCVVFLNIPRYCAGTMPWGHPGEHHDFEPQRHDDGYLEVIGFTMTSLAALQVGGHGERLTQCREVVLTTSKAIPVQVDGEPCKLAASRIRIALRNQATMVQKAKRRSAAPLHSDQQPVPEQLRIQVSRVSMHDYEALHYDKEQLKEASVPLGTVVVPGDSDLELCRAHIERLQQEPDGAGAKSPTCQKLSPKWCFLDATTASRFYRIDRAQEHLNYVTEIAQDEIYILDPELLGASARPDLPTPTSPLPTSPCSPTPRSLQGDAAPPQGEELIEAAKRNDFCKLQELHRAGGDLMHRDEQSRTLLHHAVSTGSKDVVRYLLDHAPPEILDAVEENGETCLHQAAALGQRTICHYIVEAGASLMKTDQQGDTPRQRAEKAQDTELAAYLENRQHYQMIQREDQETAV

The test concerns the target human DGKζ (Homo sapiens (Human), UniProt Q13574). Put plainly: Human DGKζ kinase activity inhibition assay (ADP-Glo). Type of test: biochemical. As to conditions: in vitro human DGKζ kinase activity inhibition assay. As for the experimental part: Human DGKζ Kinase Activity Inhibition Assay. Human diacylglycerol kinase zeta (DGKζ) inhibitory activity of compounds of the present invention was quantified employing the human DGKζ kinase activity assay as described in the following paragraphs. In essence, the enzyme activity was measured by quantification of the adenosine-di-phosphate (ADP) generated as a co-product of the enzyme reaction via the “ADP-Glo™ Kinase Assay” kit from the company Promega. This detection system works as follows: In a first step the adenosine-tri-phosphate (ATP) not consumed in the kinase reaction is quantitatively converted to cyclic adenosine-mono-phosphate (cAMP) employing an adenylate cyclase (“ADP-Glo-reagent”), then the adenylate cyclase is stopped and the ADP generated in the kinase reaction is converted to ATP, which subsequently generates in a luciferase-based reaction a glow-luminescence signal (“Kinase Detection Reagent”). C-terminally FLAG-tagged, recombinant full-length human DGKζ (in house expressed in baculovirus infected insect cells, purified using anti-Flag pulldown and size exclusion chromatography) was used as enzyme. As an alternative, commercially available enzyme by Carnabio can be used. […]
On the technique in general: ADP-Glo turns the ADP formed in a reaction into a luminescent signal.

`Cc1ccc(NC(=O)COc2ccc(C(=O)c3sc(N(c4ccc(F)cc4)C(C)C(N)=O)nc3N)cc2)cc1` (racemic) [Example 105, rac-2-(N-[4-amino-5-[4-[2-(4-methylanilino)-2-oxo-ethoxy]benzoyl]thiazol-2-yl]-4-fluoro-anilino)propanamide] came in with an IC50 of 6.45 nM.
